Reference: BindingDB's records for doi:10.1124/jpet.103.059675 (Wyeth Research, 2004)

The chains behind the UniProt entries cited, without tags or fusion partners. Where a name states a change or a piece, a line headed by the entry shows the natural chain unless it says otherwise.
UniProt P14780: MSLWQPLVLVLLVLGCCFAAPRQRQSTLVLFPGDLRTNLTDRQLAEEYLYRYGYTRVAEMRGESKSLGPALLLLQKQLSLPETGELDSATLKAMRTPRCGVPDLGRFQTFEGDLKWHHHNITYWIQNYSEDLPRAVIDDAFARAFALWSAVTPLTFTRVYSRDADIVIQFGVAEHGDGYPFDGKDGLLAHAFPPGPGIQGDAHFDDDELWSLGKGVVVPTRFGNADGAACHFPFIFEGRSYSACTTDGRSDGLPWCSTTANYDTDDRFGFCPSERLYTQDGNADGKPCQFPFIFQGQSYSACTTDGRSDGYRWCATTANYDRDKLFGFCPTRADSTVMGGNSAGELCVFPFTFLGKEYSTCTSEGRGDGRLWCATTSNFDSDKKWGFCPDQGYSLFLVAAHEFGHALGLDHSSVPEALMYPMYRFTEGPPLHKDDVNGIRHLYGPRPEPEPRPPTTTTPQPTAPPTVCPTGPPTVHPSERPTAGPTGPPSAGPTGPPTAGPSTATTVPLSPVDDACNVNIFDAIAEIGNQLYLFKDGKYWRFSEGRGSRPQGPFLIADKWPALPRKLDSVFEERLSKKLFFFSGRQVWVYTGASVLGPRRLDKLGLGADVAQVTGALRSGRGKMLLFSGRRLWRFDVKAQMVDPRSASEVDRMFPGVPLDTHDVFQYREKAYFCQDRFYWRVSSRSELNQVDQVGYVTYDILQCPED

What was measured:
[1] = target: Matrix metalloproteinase-9 (Homo sapiens, UniProt P14780); assay: MMP Inhibition Assay; settings: pH 7.4; 22 °C
Experimental: (§1) A continuous assay was used in which the substrate is a synthetic peptide containing a fluorescent group (7-methoxycoumarin), which is quenched by energy transfer to a 2,4-dinitrophenyl group. When the peptide was cleaved by MMPs, an increase in fluorescence was observed. The enzymatic reactions were initiated by adding the substrate, and the initial rate of the cleavage reaction was determined immediately after substrate addition. For most MMP assays in this study, the IC50 value is approximately 2-fold of the Ki value.

Collagenase 3 = Collagenase 3 (Homo sapiens, UniProt P45452); assay: MMP Inhibition Assay; settings: pH 7.4; 22 °C
Experimental: as §1

IC50 [1]: 12 nM
IC50 (Collagenase 3): 3 nM
SMILES: CC#CCOc1ccc(S(=O)(=O)N2CCSC(C)(C)[C@@H]2C(=O)NO)cc1 [(3S)-4-{[4-(but-2-yn-1-yloxy)benzene]sulfonyl}-N-hydroxy-2,2-dimethylthiomorpholine-3-carboxamide]
